Sequences of proteins named here, by UniProt entry; tags and fusion partners are left off.
UniProt P21397, whole entry: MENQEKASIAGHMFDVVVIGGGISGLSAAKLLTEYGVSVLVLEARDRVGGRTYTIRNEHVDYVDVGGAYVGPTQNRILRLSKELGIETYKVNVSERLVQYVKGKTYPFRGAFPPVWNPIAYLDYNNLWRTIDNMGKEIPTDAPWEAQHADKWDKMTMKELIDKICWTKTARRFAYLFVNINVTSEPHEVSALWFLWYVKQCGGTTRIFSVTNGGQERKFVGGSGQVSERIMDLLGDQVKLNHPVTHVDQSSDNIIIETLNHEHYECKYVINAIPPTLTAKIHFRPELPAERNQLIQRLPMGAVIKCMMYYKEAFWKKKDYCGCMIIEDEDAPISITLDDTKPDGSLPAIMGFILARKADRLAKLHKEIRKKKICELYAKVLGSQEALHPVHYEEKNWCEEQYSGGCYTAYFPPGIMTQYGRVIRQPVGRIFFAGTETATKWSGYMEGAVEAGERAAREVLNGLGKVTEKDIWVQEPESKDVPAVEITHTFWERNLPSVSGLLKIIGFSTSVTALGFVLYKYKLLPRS

According to ChEMBL document CHEMBL5550170, “Discovery of novel benzimidazole derivatives as selective and reversible monoamine oxidase B inhibitors for Parkinson's disease treatment” (Eur J Med Chem, 2024):

Molecular target: Amine oxidase [flavin-containing] A (Homo sapiens, UniProt P21397)

C#CCN(C)Cc1ccccc1 [PARGYLINE]
IC50: 40 µM
